Activity calls are given as the source filed them.
How the values were obtained:
MDA-MB-231 [1] = test: Antimigratory activity in human MDA-MB-231 cells xenografted in lungs of BALB/c nude mouse assessed as increase in E-cadherin level in lungs at 50 mg/kg administered once a day measured after 14 days in presence of 1:1 of compound:Pazopanib by IHC analysis; format: functional, organism-based; conditions: time 14.0 day
MDA-MB-231 [2] = test: Antimigratory activity in human MDA-MB-231 cells xenografted in BALB/c nude mouse assessed as upregulation of E-cadherin level at 50 mg/kg, po for 14 days in presence of 1:1 of compound:Pazopanib by H and E staining based IHC analysis; format: functional, organism-based; conditions: time 14.0 day
MCF7 [3] = test: Antimigratory activity in human MCF7 cells assessed as downregulation of MMP-2 level at 4 uM in presence of 1:1 of compound:Pazopanib by DAPI staining based immunofluorescence analysis; format: functional, cell-based
MCF7 [4] = test: Antimigratory activity against human MCF7 cells at 4 uM incubated for 1 hr in presence of 1:1 of compound:Pazopanib by wound healing assay; format: functional, cell-based
MCF7 [5] = test: Induction of apoptosis in human MCF7 cells assessed as increase in Bax level at 4 uM incubated for 2 days in presence of 1:1 of compound:Pazopanib by immunoblot analysis; format: functional, cell-based; conditions: time 2.0 day
MDA-MB-231 [6] = test: Induction of apoptosis in human MDA-MB-231 cells assessed as increase in cleaved caspase-3 level at 4 uM incubated for 2 days in presence of 1:1 of compound:Pazopanib by immunoblot analysis; format: functional, cell-based; conditions: time 2.0 day
MDA-MB-231 [7] = test: Inhibition of colony formation in human MDA-MB-231 cells at 4 uM incubated for 10 days in presence of 1:1 of compound:Pazopanib by crystal violet staining based assay; format: functional, cell-based; conditions: time 10.0 day
MCF7 [8] = test: Induction of apoptosis in human MCF7 cells assessed as increase in cleaved caspase-3 level at 4 uM incubated for 2 days in presence of 1:1 of compound:Pazopanib by immunoblot analysis; format: functional, cell-based; conditions: time 2.0 day
MDA-MB-231 [9] = test: Antimigratory activity in human MDA-MB-231 cells xenografted in BALB/c nude mouse assessed as downregulation of MMP2 level at 50 mg/kg, po for 14 days in presence of 1:1 of compound:Pazopanib by H and E staining based IHC analysis; format: functional, organism-based; conditions: time 14.0 day
MDA-MB-231 [10] = test: Antiproliferation activity against human MDA-MB-231 cells xenografted in BALB/c nude mouse assessed as decrease in Ki67 expression at 50 mg/kg, po for 14 days in presence of 1:1 of compound:Pazopanib by H and E staining based IHC analysis; format: functional, organism-based; conditions: time 14.0 day
MDA-MB-231 [11] = test: Induction of DNA damage in human MDA-MB-231 cells assessed as increase in comet tail length at 4 uM in presence 1:1 of Pazopanib by alkaline comet assay; format: functional, cell-based
MCF7 [12] = test: Induction of DNA damage in human MCF7 cells assessed as increase in gamma-H2AX level at 4 uM incubated for 48 hrs in presence of 1:1 of compound:Pazopanib by DAPI staining based immunofluorescence analysis; format: functional, cell-based
MDA-MB-231 [13] = test: Induction of HR DNA repair in human MDA-MB-231 cells xenografted in BALB/c nude mouse assessed as decrease in RAD51 level at 50 mg/kg, po for 14 days in presence of 1:1 of compound:Pazopanib by H and E staining based IHC analysis; format: functional, organism-based; conditions: time 14.0 day
MDA-MB-231 [14] = test: Induction of DNA damage in human MDA-MB-231 cells xenografted in BALB/c nude mouse assessed as increase in gamma-H2AX level at 50 mg/kg, po for 14 days in presence of 1:1 of compound:Pazopanib by H and E staining based IHC analysis; format: functional, organism-based; conditions: time 14.0 day
MDA-MB-231 [15] = test: Induction of HR DNA repair in human MDA-MB-231 cells xenografted in BALB/c nude mouse assessed as decrease in BRCA1 level at 50 mg/kg, po for 14 days in presence of 1:1 of compound:Pazopanib by Western blot analysis; format: functional, organism-based; conditions: time 14.0 day

O=C(c1cc(Cc2n[nH]c(=O)c3ccccc23)ccc1F)N1CCN(C(=O)C2CC2)CC1 [OLAPARIB]
active: Activity (MDA-MB-231 [1]) | Activity (MDA-MB-231 [2]) | Activity (MCF7 [3]) | Activity (MCF7 [4]) | Activity (MCF7 [5]) | Activity (MDA-MB-231 [6]) | inhibition (MDA-MB-231 [7]) | Activity (MCF7 [8]) | Activity (MDA-MB-231 [9]) | Activity (MDA-MB-231 [10]) | Activity (MDA-MB-231 [11]) | Activity (MCF7 [12]) | Activity (MDA-MB-231 [13]) | Activity (MDA-MB-231 [14]) | Activity (MDA-MB-231 [15])

Reference: ChEMBL document CHEMBL5321287, “Discovery, Synthesis, and Evaluation of Novel Dual Inhibitors of a Vascular Endothelial Growth Factor Receptor and Poly(ADP-Ribose) Polymerase for BRCA Wild-Type Breast Cancer Therapy” (J Med Chem, 2023)
